This is an account of results in patent publication US20140162974A1, “METHODS FOR MODULATION OF PHOSPHORUS AND FGF23” (Luitpold Pharmaceuticals, Inc., priority 2012, published 2014).

The nature of data set [1]: Example 3 trial: adverse events. It is filed as in vivo, human. Here is the method: (§1) The following example describes an open-label, multicenter, 5-week, prospective, randomized trial that compared single equivalent doses of intravenous elemental iron in the form of FCM versus iron dextran in women with iron deficiency anemia due to heavy uterine bleeding. Study visits were on Days 0 (when iron was infused), 1 (24 hours after iron infusion), 7, 14, and 35. The primary objectives were to determine the effect of iron deficiency on cFGF23 and iFGF23 levels and the effect of intravenous iron on iFGF23 and cFGF23 levels.
Randomization occurred centrally via a fax-based system. Subjects who were randomized to FCM (Luitpold Pharmaceuticals Inc., Shirley N.Y.) received an intravenous infusion of 15 mg/kg up to a maximum of 1000 mg diluted in 250 cc normal saline solution. The complete dose was infused over 15 minutes on day 0. Subjects who were randomized to iron dextran received Dexferrum® (Luitpold Pharmaceuticals Inc., Shirley N.Y.) on day 0 using a standard protocol. An initial test dose of 25 mg was administered slowly over 5 minutes.
Laboratory testing of blood and three-hour urine collections was performed at the screening visit and on study days 0 (when iron was infused), 1 (24 hours after iron infusion), 7, 14, and 35 (see e.g., FIG. 2A). Any subject who experienced a reduction in serum phosphate below the normal range after day 0 underwent additional phosphate measurements at 14 day intervals following day 35 until the level returned to the normal reference range. Safety evaluations of all subjects included ascertainment of adverse events, physical examinations at all study visits, and laboratory assessments. Any subject who withdrew from the study received a follow-up phone call to ascertain adverse events 30 days after they received study drug.
The pre-specified primary endpoints were changes in blood and urine markers of phosphate and bone metabolism among the evaluable population, defined as those subjects with baseline and at least one post-randomization set of FGF23 and blood and urinary phosphate levels. Secondary endpoints included the proportion of subjects achieving a hemoglobin increase […] anytime between baseline and day 35, and the change from baseline to highest hemoglobin, ferritin, and TSAT anytime during the 35-day study period. Additional safety endpoints included incidence, severity, and seriousness of adverse events, and incidence of treatment-emergent abnormal clinical laboratory values in the safety population, defined as all subjects who received the study drug regardless of subsequent laboratory testing.
The 2-sided, 95% confidence interval for the absolute difference in the proportions between the FCM and iron dextran groups was calculated to test the secondary endpoint of whether the proportion of subjects who achieved a hemoglobin increase ≧2 g/dL at any time after the baseline visit differed by iron preparation. […] The number and proportion of subjects who experienced an adverse event in the safety population was summarized and rates between the iron treatment groups using Fisher's exact test were compared for the categorical safety endpoints. Analyses were conducted using SAS version 9 (Cary, N.C.). All statistical tests were 2-tailed and p values<0.05 were considered statistically significant.

Data set [2] relates to serum phosphate, urinary fractional excretion of phosphate. The data set is described as follows: Example 3 trial: serum and urinary phosphate. Also on record: species or system human. As to conditions: in vivo. As to the method: as §1
Randomization occurred centrally via a fax-based system. […]
Blood and urine samples were sent to a central laboratory for analysis (Covance Central Laboratory Service, Indianapolis, Ind.). Hemoglobin, blood counts, iron indices, electrolytes, and serum and urinary phosphate and creatinine were measured with standard, automated, multi-analyte techniques. Urinary fractional excretion of phosphate (FEPi) was calculated from the three-hour, morning urine collections as urinary phosphate x serum creatinine/serum phosphate x urinary creatinine. Serum levels of 25-hydroxyvitamin D and 1,25-dihydroxyvitamin D were measured in duplicate by radioimmunoassay (DiaSorin, Stillwater, Minn.) with intra-assay coefficients of variation (CV)<11.6%. […]

Data set [3] is classed as in vivo. Here is the method:
The following example describes a randomized, active controlled trial of subjects with iron deficiency anemia and non-dialysis dependent chronic kidney disease and elevated cardiovascular risk who received either FCM (750 mg on Day 0 and Day 7 for a total of 1500 mg) or iron sucrose (Venofer; 200 mg on 5 visits between Days 0 and 14 for a total of 1000 mg). Study visits were on Days 0, 3, 7, 10, 14, 28, 56, and 120. A phone assessment occurred on Day 90. The primary objective was to estimate the cardiovascular safety and efficacy FCM compared to Venofer in subjects who had iron deficiency anemia (IDA) and impaired renal function.
VIT-30 was a Phase 3, multicenter, randomized, active-controlled, open-label study that compared the safety and efficacy of IV FCM vs. IV Venofer in subjects with IDA and impaired renal function. […]
Safety assessments were summarized for the Safety Population unless stated otherwise. Subjects were analyzed under the treatment actually received.
The difference between FCM and Venofer in the proportion of subjects experiencing the primary composite endpoint was assessed with a 95% 2-sided CI constructed with the normal approximation to the binomial with continuity correction. […] The precision of the estimated treatment group difference was measured by the width of the 95% CI. […]

iron dextran [reference compound]: in data set [1], the “subjects who experienced one or more adverse events” value is 60% and the “subjects with adverse events considered to be related to study drug” value is 37%. For the same substance, in data set [1] (p=0.008 between groups), the “adverse event: reduced serum phosphate noted by subjects' physicians” value is reported as 3%. Moreover, in data set [1] (safety population), the “Discontinuation from study due to adverse event, n (%)” value is 2 (6%) n (%); the “Patients experiencing one or more adverse events related to study drug, n (%)” value is recorded as 11 (37%) n (%); the “Patients experiencing one or more adverse events, n (%)” value is listed as 18 (60%) n (%); the “Patients experiencing one or more serious adverse events, n (%)” value is reported as 0 (0%) n (%). Also, in data set [2], the “subjects in whom serum phosphate decreased to <2.0 mg/dL” value was “none”.

For “polynuclear iron (III)-hydroxide 4(R)-(poly-(1→4)-O-α-glucopyranosyl)-oxy-2(R),3(S),5(R),6-tetrahydroxy-hexanoate [FCM]”, the “hazard ratio (FCM versus Venofer) for the primary composite safety endpoint” value in data set [3] (Cox proportional hazards) is 1.143. Moreover, the “subjects with 1 or more adjudicated events comprising the primary composite safety endpoint” value in data set [3] (Safety Population, through Day 120) came out at 13.71%.
